Assay results as given in patent US20040102454A1, “Phenylahistin and the phenylahistin analogs, a new class of anti-tumor compounds” (priority 1998, published 2004).

Tested on: tubulin in Human umbilical vein endothelial cells (HuVEC)
Experiment: Action on microtubule function, staining for α-tubulin
Format: cell-based
Conditions: 2 μM, thirty minutes exposure

With `COc1cc2c(c(OC)c1OC)-c1ccc(OC)c(=O)cc1[C@@H](NC(C)=O)CC2` [colchicine] the microtubule depolymerization was “induced microtubule depolymerization”.
